The values below are quoted from earlier work in patent publication US8129349B2, “Treatment of disease by inducing cell apoptosis” (The Regents of the University of California, priority 2000, dated 2012).

The Ki is the dissociation constant of the complex between target and ligand, obtained from inhibition or displacement.

The target of this data set is T1, procaspase 1 (Homo sapiens, UniProt P29466).
T1 sequence (P29466 1-404): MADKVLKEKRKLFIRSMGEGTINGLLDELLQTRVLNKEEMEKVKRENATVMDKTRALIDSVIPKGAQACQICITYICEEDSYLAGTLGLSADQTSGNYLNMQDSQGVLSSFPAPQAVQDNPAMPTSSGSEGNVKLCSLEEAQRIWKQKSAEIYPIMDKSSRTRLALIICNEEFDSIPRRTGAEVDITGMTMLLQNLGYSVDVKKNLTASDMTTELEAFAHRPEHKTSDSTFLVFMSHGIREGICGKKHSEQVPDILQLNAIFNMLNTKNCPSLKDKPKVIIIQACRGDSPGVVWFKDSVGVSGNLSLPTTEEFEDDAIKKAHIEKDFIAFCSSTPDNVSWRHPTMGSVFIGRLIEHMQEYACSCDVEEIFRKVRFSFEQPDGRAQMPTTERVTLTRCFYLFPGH
The settings on record: cited from earlier work.

As to DEVD-CHO, the Ki was 17 nM.
